# Values quoted from earlier work in patent US20180008551A1, “METALLIC AND PROTEIN/POLYMER NANOPARTICLE CONSTRUCTS, MULTI-DRUG VEHICLE AND FABRICATION METHODS” (The Curators of the University of Missouri, priority 2016, published 2018).
structure (smiles),measurement,value
CC1(C)C(/C=C/C=C/C=C/C=C2\N(CCCCS(=O)(=O)O)c3ccc4ccccc4c3C2(C)C)=[N+](CCCCS(=O)(=O)[O-])c2ccc3ccccc3c21 [Indocyanine Green],water solubility limit,2000 µg/mL
